## AlphaSeq binding of Ab-14 light chain variants to a spike HR2 peptide

The measurements come from Engelhart et al. 2022 (doi:10.1038/s41597-022-01779-4) through the FLAb antibody collection.

Binding partner: SARS-CoV-2 spike HR2 peptide, sequence PDVDLGDISGINAS.

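The parent was found by panning a naive human phage display library on the peptide. Library AAYL50 holds single substitutions and randomly drawn double and triple substitutions in the CDRs. AlphaSeq pools MATa yeast showing the antibodies with MATalpha yeast showing the peptide. Binding brings cells together so that they mate, and sequencing counts the barcode pairs among the diploids. Read counts were normalised to the haploid input and turned into Kd by a linear fit to BCL2-family pairs of known affinity, for each replicate. There are three technical replicates.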

Each scFv is VH, three GGGGS repeats, VL, as in the parent Ab-14, and differs from it in the CDRs of the light chain only.
VH: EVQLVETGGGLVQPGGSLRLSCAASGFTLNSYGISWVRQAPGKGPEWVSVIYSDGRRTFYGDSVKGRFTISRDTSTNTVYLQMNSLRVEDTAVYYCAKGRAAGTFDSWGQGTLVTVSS
VL: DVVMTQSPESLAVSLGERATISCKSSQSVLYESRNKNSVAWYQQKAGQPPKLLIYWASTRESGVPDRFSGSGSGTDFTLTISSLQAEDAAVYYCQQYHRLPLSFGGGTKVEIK

Positions count from residue 1 of the parent VL; S25F puts F in place of S. Scale: log10 of Kd in nM, estimated from mating counts; low values are strong binders. "ND" means that the variant was in the library but no mating with the target was seen in that replicate; the authors take this as a sign of poor binding, and no number exists.

changes	replicates, log10 nM	control signals
S25F V39I S58F	0.99 / 1.08 / 1.13	2/9 (4.74)
E61T S62N L100P	ND / ND / ND	1/9 (2.60)
S25M S28G K36H	-0.16 / 0.18 / -0.03	5/9 (5.48)
E32N R60F L102G	3.49 / 4.26 / 3.94	7/9 (4.51)
Q27T A57V	4.40 / 3.34 / ND	1/9 (3.16)
N37F S62M L102W	ND / ND / ND	2/9 (4.41)
Y31A R34K T59I	0.25 / 0.77 / 0.61	0/9
R34E N35H S58L	1.63 / 1.73 / 1.81	1/9 (4.13)
E32L R99V L100H	3.59 / 2.82 / 3.39	7/9 (4.55)
S25D V29L E32D	0.24 / 0.49 / 0.45	0/9
Q27W E32N S33T	1.37 / 1.33 / 1.30	2/9 (4.49)
A40K Y97I L102N	ND / ND / ND	0/9
S26K L30N S33R	1.42 / 1.38 / 1.80	0/9
K24Y L30I V39L	1.54 / 1.57 / 1.61	2/9 (4.06)
K24V S28H Q96A	5.32 / 3.18 / 4.82	1/9 (5.11)
Q95A Q96H R99Q	ND / ND / ND	1/9 (4.22)
K24N Q27I R99H	1.89 / 1.65 / 1.63	1/9 (3.79)
S28C K36G N37K	4.03 / ND / ND	2/9 (4.36)
R60G E61D S62M	2.76 / ND / ND	0/9
R60H H98A R99T	2.51 / 2.29 / 2.68	3/9 (5.59)
N35R Q96S L102M	3.36 / 2.97 / ND	3/9 (4.13)
K24D Y31W S33V	5.96 / ND / ND	5/9 (3.76)
W56K Y97E	3.50 / ND / ND	0/9
Y31H L102T	ND / 5.11 / 3.99	4/9 (4.63)
S25F Y31S W56Y	-0.50 / -0.09 / -0.31	1/9 (3.77)
S28W Q95C Y97E	1.68 / 1.73 / 1.77	0/9
S25P Q95P L100A	ND / ND / ND	1/9 (3.32)
K24G Y31Q R60D	3.97 / 3.90 / ND	2/9 (4.22)
E32Q R60M Q96D	2.48 / ND / ND	0/9
E32D W56P T59P	ND / ND / ND	0/9
V29W V39C L100T	3.31 / ND / ND	0/9
K36S T59G L102S	ND / 3.83 / 5.14	2/9 (4.29)
T59M R60Q Q96C	ND / ND / ND	0/9
S33I K36D N37W	2.11 / 2.43 / 2.19	1/9 (3.65)
L30R K36R S62I	0.74 / 1.12 / 1.21	0/9
S28N L30P L100E	ND / ND / ND	2/9 (3.50)
E32D S58Q Q96R	0.88 / 1.17 / 1.00	0/9
L30Y R34S Y97T	1.92 / 1.47 / 1.49	2/9 (3.09)
S25G W56E S58L	-0.26 / 0.09 / -0.16	1/9 (5.41)
N35C S38L Y97I	ND / ND / ND	0/9
V29D K36A W56Q	0.30 / 0.51 / 0.41	1/9 (4.41)
S33M K36N R60A	5.46 / 4.33 / 4.30	6/9 (4.72)
K24Y V39Y T59I	ND / ND / ND	1/9 (3.20)
S25D E32Q H98D	1.09 / 1.28 / 1.44	4/9 (4.74)
K36A V39E Q96T	ND / ND / ND	2/9 (3.49)

Repeated from above, the 4 best binders with a signal in all replicates:

changes	replicates, log10 nM	control signals
S25F Y31S W56Y	-0.50 / -0.09 / -0.31	1/9 (3.77)
S25G W56E S58L	-0.26 / 0.09 / -0.16	1/9 (5.41)
S25M S28G K36H	-0.16 / 0.18 / -0.03	5/9 (5.48)
S25D V29L E32D	0.24 / 0.49 / 0.45	0/9

Three control strains display no target. For library AAYL50, 18% of the pairings with them gave a signal, with a median of 4.19 and one signal in twenty below 2.99, so weak values seen in few replicates may be background. For each scFv, signals with the empty controls are counted beside the result, with their mean in brackets.